Laboratory results: ChEMBL document CHEMBL3091286 (Bioorg Med Chem, 2013)
Active and inactive are the calls of the source. No cut-off for these calls is given here.

The chains behind the UniProt entries cited, without tags or fusion partners.
5-hydroxytryptamine receptor 3A (Homo sapiens), P46098, UniProt P46098, whole entry W178C: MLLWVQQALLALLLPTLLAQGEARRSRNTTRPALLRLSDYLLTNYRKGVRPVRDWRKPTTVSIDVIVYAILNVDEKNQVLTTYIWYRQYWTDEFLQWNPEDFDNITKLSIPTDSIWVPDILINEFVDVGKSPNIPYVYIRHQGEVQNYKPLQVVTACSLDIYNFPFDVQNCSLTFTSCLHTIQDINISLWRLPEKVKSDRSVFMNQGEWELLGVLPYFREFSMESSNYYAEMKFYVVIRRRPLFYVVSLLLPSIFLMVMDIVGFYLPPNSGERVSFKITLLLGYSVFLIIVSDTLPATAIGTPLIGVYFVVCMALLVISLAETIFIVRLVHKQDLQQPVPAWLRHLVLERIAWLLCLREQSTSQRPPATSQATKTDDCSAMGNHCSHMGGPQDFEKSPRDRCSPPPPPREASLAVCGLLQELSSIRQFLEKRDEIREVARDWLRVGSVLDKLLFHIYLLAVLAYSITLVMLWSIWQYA
5-hydroxytryptamine receptor 3A (Homo sapiens), P46098, UniProt P46098, whole entry W85C: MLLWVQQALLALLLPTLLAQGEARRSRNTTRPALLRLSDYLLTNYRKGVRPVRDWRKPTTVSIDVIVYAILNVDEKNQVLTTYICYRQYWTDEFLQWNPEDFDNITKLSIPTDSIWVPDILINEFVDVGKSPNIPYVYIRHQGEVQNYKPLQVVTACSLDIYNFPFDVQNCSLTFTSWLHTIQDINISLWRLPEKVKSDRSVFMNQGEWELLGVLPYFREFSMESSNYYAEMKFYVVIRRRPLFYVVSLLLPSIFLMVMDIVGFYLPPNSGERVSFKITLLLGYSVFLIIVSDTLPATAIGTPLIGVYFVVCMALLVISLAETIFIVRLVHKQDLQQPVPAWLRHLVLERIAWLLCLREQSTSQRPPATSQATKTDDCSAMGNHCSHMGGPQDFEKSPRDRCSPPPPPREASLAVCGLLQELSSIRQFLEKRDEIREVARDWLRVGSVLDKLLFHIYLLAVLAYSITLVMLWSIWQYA
5-hydroxytryptamine receptor 3A (Homo sapiens), P46098, UniProt P46098, whole entry F125Y: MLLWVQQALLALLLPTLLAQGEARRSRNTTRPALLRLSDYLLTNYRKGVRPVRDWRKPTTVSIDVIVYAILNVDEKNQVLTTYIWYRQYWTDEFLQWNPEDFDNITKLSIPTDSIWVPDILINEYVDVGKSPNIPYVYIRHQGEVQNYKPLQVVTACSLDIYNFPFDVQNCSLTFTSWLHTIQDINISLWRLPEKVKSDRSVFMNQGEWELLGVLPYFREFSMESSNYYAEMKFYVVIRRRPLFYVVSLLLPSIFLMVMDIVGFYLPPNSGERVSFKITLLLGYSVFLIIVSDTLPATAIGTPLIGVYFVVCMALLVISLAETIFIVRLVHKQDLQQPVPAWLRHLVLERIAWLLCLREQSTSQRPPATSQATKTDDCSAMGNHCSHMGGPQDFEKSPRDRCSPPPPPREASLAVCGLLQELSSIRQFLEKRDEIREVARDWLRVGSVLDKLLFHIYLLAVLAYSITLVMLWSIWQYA

Key:
[1] = system: 5-hydroxytryptamine receptor 3A (Homo sapiens), P46098 [W178C]; assay: Antagonist activity at human 5-HT3A receptor W183C mutant assessed as inhibition of 5-HT-induced response after 45 mins by FLIPR assay
[2] = organism: Homo sapiens; assay: Ratio of Kd for human 5-HT3B receptor F130A mutant to Kd for human wild type 5-HT3A/5-HT3B receptor
[3] = system: 5-hydroxytryptamine receptor 3A (Homo sapiens), P46098 [W85C]; assay: Antagonist activity at human 5-HT3A receptor W90C mutant assessed as inhibition of 5-HT-induced response after 45 mins by FLIPR assay
[4] = system: 5-hydroxytryptamine receptor 3A (Homo sapiens), P46098 [F125Y]; assay: Antagonist activity at human 5-HT3A receptor F130Y mutant assessed as inhibition of 5-HT-induced response after 45 mins by FLIPR assay

O=C1c2cccc3c2[C@H](CCC3)CN1[C@@H]1CN2CCC1CC2 [PALONOSETRON]
inhibition [1]: inactive | Ratio [2]: 2 | inhibition [3]: inactive | inhibition [4]: inactive
